## Yeast mating assay B: variants of the scFv Ab-14

Values reported by Li et al. 2023, doi:10.1038/s41467-023-39022-2 (FLAb copy).

Target peptide (SARS-CoV-2 spike, HR2 region): PDVDLGDISGINAS

The variants keep the light chain, the linker and the frameworks of Ab-14 (scFv order VH, a (GGGGS)3 linker, VL).
VH: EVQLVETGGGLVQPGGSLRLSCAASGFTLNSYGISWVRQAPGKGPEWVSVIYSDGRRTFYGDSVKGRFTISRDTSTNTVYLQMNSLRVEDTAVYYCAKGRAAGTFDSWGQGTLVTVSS
VL: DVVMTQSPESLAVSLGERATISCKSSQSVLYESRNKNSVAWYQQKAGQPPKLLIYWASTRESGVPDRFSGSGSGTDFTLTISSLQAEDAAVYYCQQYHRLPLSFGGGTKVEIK

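The parent was found by panning a naive human phage display library on the peptide. These sequences belong to a second round, designed from the earlier measurements on random variants of the parent. Their group label is 14H_En_Gibbs (En: ensemble of fine-tuned language models; Gibbs: Gibbs sampling). The assay is AlphaSeq: two haploid yeast populations carry antibody and antigen on their surface. The frequency of each diploid, read from paired DNA barcodes, reflects how well the two displayed proteins bind. The ratio of observed to expected reads was calibrated, replicate by replicate, on BCL2-family standards whose Kd was known from biolayer interferometry. There are six technical replicates.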

Each variant is given by its three heavy chain CDRs, as the data file delimits them; those of the parent are GFTLNSYGIS, VIYSDGRRTFYGDSVK, GRAAGTFDS.
The read-out is the apparent dissociation constant on a log10 scale (nM): the lower, the stronger.
The mean shown is taken over the replicates in which the pair was detected.
"nd" means that the variant was in the library but no mating with the target was seen in that replicate; the authors take this as a sign of poor binding, and no number exists.
The parent sequence was in this pool as ten entries: three were never detected, three once, and four in most replicates, with averages from 0.34 to 2.37.
Nonspecific signal, from three strains lacking the peptide, appeared in 1% of pairings of all heavy chain designs, centred on 2.08 (5% of these signals below 0.84); values are not corrected for it. The control count says in how many pairings with the empty strains this scFv gave a signal, with their mean in brackets.
A sequence measured in both rounds can read differently, since the two assays cover different ranges.
In the paper, a design with two or fewer of six values counts as a poor binder.

CDR-H1 | CDR-H2 | CDR-H3 | log10 Kd, replicates | log10 Kd (nM), mean | signal with controls
GDQLDEYGIS | VIYADGMRTAYADSFK | GNKSVIIGI | nd / nd / nd / nd / nd / nd | nd | 0 of 18
EFDLNEYGIS | VIYADGHRSFYIDTVK | GQQAGIFNM | nd / nd / nd / nd / nd / nd | nd | 0 of 18
GFDLMEYGIS | VIYADGMRQAYANKFK | GGISDSGLI | nd / nd / nd / nd / nd / nd | nd | 0 of 18
GFDFQEYGIS | VIYADGQRAVYSDSVK | GNIGAIFSD | nd / nd / nd / nd / nd / nd | nd | 0 of 18
GEDLGEYGIS | VIYADGVRFSYIDSVK | GQSTGFLDV | nd / nd / nd / nd / nd / nd | nd | 0 of 18
GMDLEEYGIS | VIYADGMRTAAVDSVK | GDQSGTLVY | nd / nd / nd / nd / nd / nd | nd | 1 of 18 (1.41)
GYSLDDYGIS | VIYADGKRTMYAESVK | GQIAGSLSN | 1.20 / 1.33 / 2.06 / 1.75 / 1.15 / 1.44 | 1.49 | 1 of 18 (2.06)
GFSLDEYGIS | VIYADGTRTMYIDNVK | GLIGMFCDI | 0.89 / nd / nd / nd / nd / nd | 0.89 | 0 of 18
GEVLDEYGIS | VIYADGSRVAYTDAVK | GHHTGAFDM | nd / nd / nd / nd / nd / nd | nd | 0 of 18
GFDINEYGIS | VIYADGQREYYAESVK | GFNQTINVV | nd / nd / nd / nd / nd / nd | nd | 0 of 18
GFGLMDYGIS | VIYADGMRRSYANSFK | GAHAGTFDF | nd / nd / nd / nd / nd / 1.67 | 1.67 | 0 of 18
GPSLDEYGIS | VIYADGVRQQYQDDVK | GQIGGFVNY | nd / nd / nd / nd / nd / nd | nd | 0 of 18
GFHLDEFGIS | VIYADGLRYHYANSVK | GEMAGTFTT | 2.02 / 2.08 / 1.78 / 2.01 / 1.00 / 2.01 | 1.82 | 0 of 18
FFKLEDFGIS | VIYADGRRTAYVDDVK | GENAGTFQV | 1.36 / 1.84 / 1.48 / 1.04 / 0.27 / 0.83 | 1.14 | 0 of 18
GFNLNEYGIS | VIYADGQRTSYTDQVK | GVETGAVLE | nd / nd / nd / nd / nd / nd | nd | 0 of 18
GFDLNEYGVS | VIYADGQRTYYTESVK | GKFGDLLMA | nd / nd / nd / nd / 1.93 / nd | 1.93 | 0 of 18
GFDLGEYGIS | VIYADGRRKAYSDAVK | GINVYGKTV | nd / nd / nd / nd / nd / nd | nd | 0 of 18
GFALDKYGIS | VIYADGSRTVYADDVK | GMLGATFGV | nd / nd / nd / nd / nd / nd | nd | 1 of 18 (1.08)
GDQLDEYGIS | VIYADGMRTMYADSFK | GNKSVNIGI | nd / nd / nd / nd / nd / nd | nd | 0 of 18
GEDLMEYGIS | VIYADGERISYANSVK | GGVSGNFSS | nd / nd / nd / nd / nd / nd | nd | 3 of 18 (2.74)
GFDLSEYGIS | VIYADGRRASYTDAVK | GQVEGMLDV | nd / 0.79 / nd / nd / nd / nd | 0.79 | 0 of 18
GYDIQDYGIS | VIYADGVRTVYHDSVK | GQLSGFFIT | nd / nd / nd / nd / nd / nd | nd | 0 of 18
GFGINEYGIS | VIYADGMRSAYANSVK | GAHAGGMVW | nd / nd / nd / nd / nd / nd | nd | 0 of 18
GFDIQEYGIS | VIYADGHRTAYTNKVK | GGISMISST | nd / nd / nd / nd / nd / nd | nd | 1 of 18 (2.26)
GMDLDEYGIS | VIYADGQRRQYAANFK | GVNIDGFDL | nd / nd / 1.58 / nd / nd / 2.88 | 2.23 | 0 of 18
GFGLDEFGIS | VIYADGQRTAYLDSFK | GENSNAVDT | nd / nd / nd / nd / nd / nd | nd | 0 of 18
GFDLAEYGIS | VIYADGQRKSYANSFK | GRLSGQNIM | nd / nd / nd / nd / nd / nd | nd | 0 of 18
GFNLDEYGIS | VIYADGMRTFYIDKAK | GNAGIVFEM | nd / nd / nd / nd / nd / nd | nd | 0 of 18
GDDLNEVGIS | VIYADGVRNQYIQSVK | GHVAGTFFY | nd / 3.84 / nd / nd / nd / nd | 3.84 | 0 of 18
GQDINEYGIS | VIYADGVRTQYSDSVK | SGTDVALTV | nd / nd / nd / nd / nd / nd | nd | 0 of 18
GDSLDEYGIS | VIYADGLRKQYSNKVK | GLEGFFFDQ | nd / nd / nd / 1.46 / nd / nd | 1.46 | 0 of 18
GMNLGEYGIS | VIYADGVRTAYVDKVK | GFNQVDSLI | nd / nd / nd / nd / nd / nd | nd | 0 of 18
GKSLDEYGIS | VIYADGLRTQYSNKVK | GLEGFFFDQ | nd / nd / nd / nd / nd / nd | nd | 0 of 18
GFDIEKYGIS | VIYADGQRVAYDSSVK | GEEAGNFHV | nd / nd / nd / nd / nd / nd | nd | 0 of 18
GNNLEEYGIS | VIYADGRRTSYASDVK | GDIRGIFDS | nd / nd / nd / nd / nd / nd | nd | 0 of 18
GESLDSYGIS | VIYADGMRTSYDNSVK | GVWAGTFDG | nd / nd / nd / nd / nd / nd | nd | 0 of 18
GFNLNEYGIS | VIYADGMRNFYADSVK | GLHAGFFDI | nd / nd / nd / nd / nd / nd | nd | 1 of 18 (2.17)
GQDLAEYGIS | VIYADGKRTYYAQAVK | GTNVGQGDT | nd / nd / nd / nd / nd / nd | nd | 0 of 18
GYQLEDYGIS | VIYADGRRTAYAADVK | GQGVVVFAG | nd / nd / nd / nd / nd / nd | nd | 0 of 18
GNSLDEYGIS | VIYADGMRTAYTDDVK | GVVSNTLVD | nd / nd / nd / nd / nd / nd | nd | 0 of 18
GFALNEYGIS | VIYADGSRSAYIESVK | GVHNIDVNV | nd / nd / nd / nd / 2.46 / 2.41 | 2.44 | 0 of 18
GQNLDEYGIS | VIYADGMRKYYADNVK | GKSVGSIII | nd / nd / nd / nd / nd / nd | nd | 0 of 18
GFDIKEQGIS | VIYADGMRTFYSDKVK | GQNSNGFDM | nd / nd / nd / nd / nd / nd | nd | 0 of 18
GFELDEYGIS | VIYADGARTAYVDNVK | GDAVGIFHV | nd / nd / nd / nd / nd / nd | nd | 0 of 18
GFQLNEYGIS | VIYADGMRSEYQDSVK | GGNNSSFKV | nd / nd / nd / nd / nd / nd | nd | 1 of 18 (2.46)
GFILNEYGIS | VIYADGMRTSYAQNVK | GYNGSDLTK | nd / nd / nd / nd / nd / nd | nd | 0 of 18
GFSLNEYGIS | VIYADGLRSEYQDKVK | GELALSLDT | nd / nd / nd / 2.49 / nd / nd | 2.49 | 0 of 18
GFKLDEYGIS | VIYADGIRVFYADSVK | GGFDGYKFI | nd / nd / nd / nd / nd / nd | nd | 0 of 18
GMDINEYGVS | VIYADGNRTMYIDNVK | GIEGGSFVL | nd / nd / nd / nd / nd / nd | nd | 0 of 18

For reference, 6 entries of the list once more:

CDR-H1	CDR-H2	CDR-H3	log10 Kd, replicates	log10 Kd (nM), mean	signal with controls
GFDIEKYGIS	VIYADGQRVAYDSSVK	GEEAGNFHV	nd / nd / nd / nd / nd / nd	nd	0 of 18
GFDIKEQGIS	VIYADGMRTFYSDKVK	GQNSNGFDM	nd / nd / nd / nd / nd / nd	nd	0 of 18
GNSLDEYGIS	VIYADGMRTAYTDDVK	GVVSNTLVD	nd / nd / nd / nd / nd / nd	nd	0 of 18
GFDLAEYGIS	VIYADGQRKSYANSFK	GRLSGQNIM	nd / nd / nd / nd / nd / nd	nd	0 of 18
GMDINEYGVS	VIYADGNRTMYIDNVK	GIEGGSFVL	nd / nd / nd / nd / nd / nd	nd	0 of 18
GYSLDDYGIS	VIYADGKRTMYAESVK	GQIAGSLSN	1.20 / 1.33 / 2.06 / 1.75 / 1.15 / 1.44	1.49	1 of 18 (2.06)